Results taken from PMC8300687, “A Fine-Tuned Lipophilicity/Hydrophilicity Ratio Governs Antibacterial Potency and Selectivity of Bifurcated Halogen Bond-Forming NBTIs” (Antibiotics, 2021).

Amino acid sequences for entries named in this document (tags omitted). A change or cut given only in a name is not applied to a line headed by its entry.
UniProt P20831: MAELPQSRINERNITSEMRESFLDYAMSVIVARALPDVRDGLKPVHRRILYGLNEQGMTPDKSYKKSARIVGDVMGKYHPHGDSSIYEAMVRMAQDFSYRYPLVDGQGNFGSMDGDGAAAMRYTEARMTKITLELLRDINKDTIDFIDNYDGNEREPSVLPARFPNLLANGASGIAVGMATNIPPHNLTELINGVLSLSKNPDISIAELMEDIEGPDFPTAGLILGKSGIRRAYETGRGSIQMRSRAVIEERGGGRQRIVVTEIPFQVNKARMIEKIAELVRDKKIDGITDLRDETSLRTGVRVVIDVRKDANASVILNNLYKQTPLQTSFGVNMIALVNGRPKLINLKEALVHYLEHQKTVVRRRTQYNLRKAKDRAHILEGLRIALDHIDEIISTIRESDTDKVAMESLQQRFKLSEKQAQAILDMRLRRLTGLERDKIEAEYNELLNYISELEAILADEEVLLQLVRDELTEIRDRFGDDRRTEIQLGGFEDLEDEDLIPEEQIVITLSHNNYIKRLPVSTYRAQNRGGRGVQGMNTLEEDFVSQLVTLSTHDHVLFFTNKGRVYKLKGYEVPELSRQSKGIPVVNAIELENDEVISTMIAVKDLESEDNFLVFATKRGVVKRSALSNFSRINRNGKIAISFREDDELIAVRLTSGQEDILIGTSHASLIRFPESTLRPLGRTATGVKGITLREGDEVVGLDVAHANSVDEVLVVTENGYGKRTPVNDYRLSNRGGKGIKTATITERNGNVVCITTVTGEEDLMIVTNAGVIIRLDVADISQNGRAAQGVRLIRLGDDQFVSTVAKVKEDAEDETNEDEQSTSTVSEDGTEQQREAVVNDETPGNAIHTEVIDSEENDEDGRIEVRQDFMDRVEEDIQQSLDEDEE
UniProt P0AFI2: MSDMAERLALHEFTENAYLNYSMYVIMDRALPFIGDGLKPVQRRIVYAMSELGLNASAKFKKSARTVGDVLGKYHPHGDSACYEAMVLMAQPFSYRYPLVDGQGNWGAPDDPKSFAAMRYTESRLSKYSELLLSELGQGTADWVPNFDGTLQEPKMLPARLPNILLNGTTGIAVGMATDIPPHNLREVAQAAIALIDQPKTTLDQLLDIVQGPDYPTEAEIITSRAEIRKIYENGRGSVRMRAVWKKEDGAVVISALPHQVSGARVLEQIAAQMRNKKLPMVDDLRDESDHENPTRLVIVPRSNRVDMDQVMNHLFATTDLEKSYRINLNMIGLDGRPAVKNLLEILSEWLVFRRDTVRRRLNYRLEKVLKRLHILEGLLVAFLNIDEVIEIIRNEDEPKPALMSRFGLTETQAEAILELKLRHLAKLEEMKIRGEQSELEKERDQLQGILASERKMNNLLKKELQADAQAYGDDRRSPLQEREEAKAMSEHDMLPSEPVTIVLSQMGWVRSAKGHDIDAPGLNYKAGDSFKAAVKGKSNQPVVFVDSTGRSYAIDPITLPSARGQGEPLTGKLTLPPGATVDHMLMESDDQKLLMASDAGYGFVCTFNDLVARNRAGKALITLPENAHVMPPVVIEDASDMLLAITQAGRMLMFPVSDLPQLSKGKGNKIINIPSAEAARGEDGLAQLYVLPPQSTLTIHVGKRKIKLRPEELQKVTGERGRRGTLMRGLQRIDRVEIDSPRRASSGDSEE

Columns and labels:
Assay type in all cases: biochemical
Conditions in all cases: LE = (1.37/HA) × pIC50
S. aureus DNA gyrase = target: T1, S. aureus DNA gyrase (Staphylococcus aureus, UniProt P20831)
T1 construct: purchased Inspiralis (Norwich, UK)

E. coli DNA gyrase = target: T2, E. coli DNA gyrase (Escherichia coli, UniProt P0AES4); assay: Gyrase Supercoiling High Throughput Plate assay, E. coli
T2 construct: purchased Inspiralis (Norwich, UK)

E. coli Topo IV = target: T3, E. coli Topo IV (Escherichia coli, UniProt P0AFI2); assay: Topo IV Relaxation High Throughput Plate assay, E. coli
T3 construct: purchased Inspiralis (Norwich, UK)

Structure (SMILES)	LE DNA Gyrase S. aureus (S. aureus DNA gyrase)	LE DNA Gyrase E. coli (E. coli DNA gyrase)	LE Topo IV E. coli (E. coli Topo IV)
COc1ccc2nccc(CCN3CCC(NCc4ccc(Br)cc4)CC3)c2n1 [Compound 14]	0.39	0.29	0.35
COc1ccc2nccc(CCN3CCC(NCc4ccc(I)cc4)CC3)c2n1 [Compound 15]	0.38	–	0.36
